Test results as given in patent US20160333020A1, “7-BETA ANALOGS OF ORVINOLS” (published 2016).

Protein sequences, listed by entry. Tags and fused reporters are not part of them.
UniProt P35372, whole entry: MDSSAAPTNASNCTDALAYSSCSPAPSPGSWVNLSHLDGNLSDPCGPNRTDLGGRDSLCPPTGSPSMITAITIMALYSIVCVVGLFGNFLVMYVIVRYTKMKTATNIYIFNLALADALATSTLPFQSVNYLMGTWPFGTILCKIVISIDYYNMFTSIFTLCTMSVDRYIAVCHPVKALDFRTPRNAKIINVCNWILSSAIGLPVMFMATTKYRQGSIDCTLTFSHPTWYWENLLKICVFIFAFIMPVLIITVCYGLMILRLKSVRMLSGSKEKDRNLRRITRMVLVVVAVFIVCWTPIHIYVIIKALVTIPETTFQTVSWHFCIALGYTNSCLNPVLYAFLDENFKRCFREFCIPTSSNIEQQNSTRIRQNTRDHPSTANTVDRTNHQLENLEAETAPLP
UniProt P41145, whole entry: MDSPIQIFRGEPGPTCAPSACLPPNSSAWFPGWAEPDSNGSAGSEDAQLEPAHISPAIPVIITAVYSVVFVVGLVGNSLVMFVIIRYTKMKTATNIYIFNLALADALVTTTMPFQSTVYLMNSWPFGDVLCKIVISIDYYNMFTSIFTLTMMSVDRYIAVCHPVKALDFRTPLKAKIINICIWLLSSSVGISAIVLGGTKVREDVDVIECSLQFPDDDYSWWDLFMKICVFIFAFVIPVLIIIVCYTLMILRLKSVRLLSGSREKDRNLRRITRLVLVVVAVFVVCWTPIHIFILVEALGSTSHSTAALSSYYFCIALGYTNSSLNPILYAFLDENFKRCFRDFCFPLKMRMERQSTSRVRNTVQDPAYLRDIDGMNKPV

Key:
μ-opioid receptor [1] = target: T1, μ-opioid receptor (Homo sapiens, UniProt P35372); assay: [35S]GTPγS functional assay, μ-opioid receptor, HEK-293 cells; conditions: for μ Emax (%): maximal effect relative to DAMGO, Table 1; for EC50: read-out: μ EC50, μ GTP EC50, Table 1
μ-opioid receptor [2] = target: T1, μ-opioid receptor; assay: [35S]GTPγS functional assay, μ-opioid receptor, U-2 OS cells
κ-opioid receptor = κ-opioid receptor (Homo sapiens, UniProt P41145); assay: [35S]GTPγS functional assay, κ-opioid receptor, U-2 OS cells

SMILES | μ Emax (%) (μ-opioid receptor [1]) | EC50 (μ-opioid receptor [1]) | μ Emax (%) (μ-opioid receptor [2]; maximal effect relative to DAMGO, Table 2) | EC50 (μ-opioid receptor [2]; read-out: μ EC50, μ GTP EC50, Table 2) | κ Emax (%) (κ-opioid receptor; maximal effect relative to U69,593, Table 2) | EC50 (κ-opioid receptor; read-out: κ EC50, κ GTP EC50, Table 2)
COc1ccc2c3c1O[C@H]1[C@@]4(OC)CC[C@@]5(C[C@H]4COCc4ccoc4)[C@@H](C2)N(CC2CC2)CC[C@]315 | 19.0 ± 1.14% | 2.51 nM | – | – | – | –
COc1ccc2c3c1O[C@H]1[C@@]4(OC)CC[C@@]5(C[C@H]4CN(C)Cc4ccccc4)[C@@H](C2)N(CC2CC2)CC[C@]315 | 26.0 ± 2.65% | 6.4 nM | – | – | – | –
COc1ccc2c3c1O[C@H]1[C@@]4(OC)CC[C@@]5(C[C@H]4COCc4ccccc4)[C@@H](C2)N(CC2CC2)CC[C@]315 | 15.5 ± 0.65% | 5.36 nM | 75.2 ± 2.39% | 0.5 nM | 89.0 ± 3.51% | 0.038 nM
CO[C@]12CC[C@@]3(C[C@H]1COCc1ccoc1)[C@H]1Cc4ccc(O)c5c4[C@@]3(CCN1CC1CC1)[C@H]2O5 | 15.0 ± 4.04% | 0.21 nM | – | – | – | –
COc1ccc2c3c1OC1[C@@]4(OC)CC[C@@]5(C[C@H]4CNCc4ccccc4)[C@@H](C2)N(CC2CC2)CC[C@]315 (stereo partly shown) | 98.0 ± 6.03% | 4.17 nM | – | – | – | –
CO[C@]12CC[C@@]3(C[C@H]1CN(C)Cc1ccccc1)[C@H]1Cc4ccc(O)c5c4[C@@]3(CCN1CC1CC1)[C@H]2O5 | 20.4 ± 1.12% | 0.23 nM | – | – | – | –
